Key:
[1] = system: Human macrophages electroporated with HER2 CAR mRNA; assay: Cytokine treatment of HER2 CAR mRNA macrophages: viability, CAR expression, M1/M2 markers by flow cytometry; format: cell-based
Procedure: (§1) Human macrophages were electroporated with HER2 CAR mRNA comprising m6AGCap1 and PsU modifications. Cells were cultured with cytokines that induce an M1 phenotype such as IFN-alpha, IFN-beta, IFN-gamma, IFN-gamma plus lipopolysaccharide (LPS), TNF-alpha, IL-6 or a STING ligand (STING-L) for up to 48 hours and then cytokines were washed off and fresh media was added. CAR expression and M1 marker expression were measured on days 2 and 7 after transfection. Fluorescent labeled HER2+ breast cancer cells (CRL2351) were co-cultured with HER2 CAR macrophages two days after the macrophages were transfected. Cancer cell growth was monitored via its fluorescence on an Incucyte® live imaging microscope every four hours. The Effector (CAR macrophage) to Target (cancer cell) ratio was 5:1.
(§2) Five different mRNA modifications were also tested to determine if interferon treatment differentially affected macrophages transfected with mRNA comprising different modifications. Human macrophages were electroporated with HER2 CAR mRNA comprising different mRNA modifications. CAR expression and M1 markers were detected by Flow Cytometry (Attune) on day four after electroporation. Day 4 CAR macrophage cells were then co-cultured with a Nuc-Light labeled, HER2+ breast cancer cell line (CRL2351) at an Effector (CAR macrophage) to Target (cancer cell) ratio of 5:1. Cancer cell growth was monitored via its fluorescence on an Incucyte® live imaging microscope every four hours.
To further evaluate the impact of IFN-β on CAR persistence, human macrophages electroporated with m6AGCap1/PsU mRNA encoding a HER2 CAR were evaluated on day 2 and day 7.
In order to validate the effect of IFN-β treatment on improved CAR expression, and to optimize the IFN-β concentration, macrophages transfected with M6AGCap1/PsU modified mRNA were treated with 0, 3, 10, 30, or 100 ng/mL IFN-β for 4 hours and the viability, CAR percentage, and CAR MFI were evaluated on day 4 and day 7 post electroporation.
Given that macrophage phenotype is considered plastic, and immunosuppressive cytokines such as IL-10 are known to induce an M2 phenotype, the impact of IL-10 treatment on IFN-β treated or untreated HER2 CAR mRNA transfected macrophages was evaluated.
Additional studies were performed to determine if treatment with interferons could further improve CAR mRNA persistence in macrophages and if CAR macrophage functionality could be extended. Human macrophages were electroporated with 300 nM CAR mRNA comprising m6AGCap1 and PsU modifications. Cells were cultured with 20 ng/mL IFNs for 24 hours and then the cells were washed to remove cytokines. CAR expression was detected by Flow Cytometry (Attune) on day 2 after transfection. Cells were then co-cultured with a Nuc-Light labeled, HER2+ breast cancer cell line (CRL2351) at the Effector to Target ratio of 3:1. Cancer cell growth was monitored via its fluorescence on an Incucyte® live imaging microscope. CAR expression and M1 markers in macrophages were detected by Flow Cytometry (Attune) on day 7 after transfection.

[2] = system: HER2+ breast cancer cells (CRL2351); assay: Cancer cell killing by cytokine treated HER2 CAR macrophages (Incucyte); format: cell-based
Procedure: as §1, §2
To evaluate the anti-tumor function of macrophages transfected with mRNA encoding a HER2 CAR with or without priming with IFN-β, untransduced (UTD) or CAR macrophages were primed with 0, 3, 10, 30, or 100 ng/mL IFN-β for 4 hours or 20 hours. These effector cells were then co-cultured with the HER2+ breast cancer cell line CRL2351-GFP at an effector to target ratio of 3:1 or 1.5:1 and anti-tumor activity was measured based on GFP expression using an Incucyte® live imaging microscope. […] To evaluate whether the improved mRNA-transfected CAR macrophage anti-tumor effect was universal to all interferons or only interferon beta, macrophages electroporated with M6AGCap1/PsU mRNA were treated with IFN-alpha, beta, or gamma and evaluated for their cancer cell killing ability.
Additional studies were performed to determine if treatment with interferons could further improve CAR mRNA persistence in macrophages and if CAR macrophage functionality could be extended. […] CAR expression was detected by Flow Cytometry (Attune) on day 2 after transfection. […] Cancer cell growth was monitored via its fluorescence on an Incucyte® live imaging microscope. CAR expression and M1 markers in macrophages were detected by Flow Cytometry (Attune) on day 7 after transfection.

[3] = system: HER2 CAR macrophages co-cultured with HER2+ breast cancer cells (CRL2351); assay: Cytokine secretion of interferon treated HER2 CAR macrophages in co-culture (MSD); format: cell-based, human; conditions: E:T 3:1, supernatant at 48 hours
Procedure: To evaluate whether interferon treatment of macrophages improved other anti-tumor functions, the cytokine secretion of interferon treated or untreated mRNA transfected HER2 CAR macrophages after co-culture with HER2+ breast cancer cells was evaluated. Human macrophages were electroporated with 150 nM HER2 CAR mRNA comprising m6AGCap1 and PsU modifications. HER2+ breast cancer cells (CRL2351) were co-cultured with CAR macrophages after the macrophages were transfected with the CAR mRNA at an Effector (CAR macrophage) to Target (cancer cell) ratio of 3:1. Supernatant was collected 48 hours after the cancer cells and macrophages were co-cultured and cytokine levels were measured using a Meso Scale Discovery (MSD) instrument.

[4] = 48 hours and 7 days post-treatment with IL-10

B1: IFN-β: interferon cytokine that induces an M1 phenotype (protein, UniProt P01574 22-187, looked up)
Interferon beta: MSYNLLGFLQRSSNFQCQKLLWQLNGRLEYCLKDRMNFDIPEEIKQLQQFQKEDAALTIYEMLQNIFAIFRQDSSSTGWNETIVENLLANVYHQINHLKTVLEEKLEKEDFTRGKLMSSLHLKRYYGRILHYLKAKEYSHCAWTIVRVEILRNFYFINRLTGYLRN
induction of M1 markers CD80, CD86, and HLA-DR ([1]; 0-100 ng/mL): dose-dependent
M1 marker CD86 after IL-10 treatment [1, 4]: retaining expression of the M1 marker CD86
M2 marker CD163 after IL-10 treatment [1, 4]: did not express the M2 marker CD163
persistence of M1 phenotype post treatment ([1]; CD86): at least 7 days
expression of M1 markers CD80, CD86 and HLA-DR vs no interferon ([1]; day 7, 20 ng/mL 24 hours): increased
M1 phenotype based on CD86 expression ([1]; days 2 and 7): strongest M1 phenotype
M2 markers based on CD163 expression ([1]; days 2 and 7): reduction of M2 markers
anti-tumor activity of primed CAR macrophages ([2]; 0-100 ng/mL for 4 or 20 hours, E:T 3:1 or 1.5:1): improved ability for CAR macrophages to kill cancer cells
cancer cell killing, comparison of interferons ([2]; M6AGCap1/PsU mRNA): best cancer cell killing
cancer cell killing ([2]; macrophages 7 days post-electroporation, 72 hours co-culture): highest level of cancer killing
anti-tumor activity of CAR macrophages with differently modified mRNAs ([2]; with or without treatment): improved anti-tumor activity for all CAR macrophages except those transfected with 5 moU mRNA
secretion of IL-6, IL-8 and TNFα from macrophages [3]: increased secretion of the cytokines IL-6, IL-8 and TNFα
